What is called Ki is a dissociation constant, usually derived from enzyme kinetics or from competition with a known ligand.

This is an account of results in ChEMBL document CHEMBL2163234, “Design and characterization of optimized adenosine A₂A/A₁ receptor antagonists for the treatment of Parkinson's disease” (J Med Chem, 2012).

This assay concerns the target Adenosine receptor A2a (Homo sapiens, UniProt P29274). Nature of the assay: Antagonist activity at human Adenosine receptor A2a assessed as inhibition of cAMP production. The assay is classed as functional.

For `CC(C)n1cc(-c2ncc(N)nc2-c2ccc(F)cc2)ccc1=O`, the Ki came out at 1.8 nM.
